Reference: US20090263341A1, “SOFT ANTICHOLINERGIC ESTERS” (priority 2005, published 2009)
Several values for one entry are separate records, joined by “and”; a condition that tells them apart may be missing. Equal entries are not always repeated.

Sequences of proteins named here, by UniProt entry; tags and fusion partners are left off. A change or cut given only in a name is not applied to a line headed by its entry.
UniProt P08173, whole entry, looked up: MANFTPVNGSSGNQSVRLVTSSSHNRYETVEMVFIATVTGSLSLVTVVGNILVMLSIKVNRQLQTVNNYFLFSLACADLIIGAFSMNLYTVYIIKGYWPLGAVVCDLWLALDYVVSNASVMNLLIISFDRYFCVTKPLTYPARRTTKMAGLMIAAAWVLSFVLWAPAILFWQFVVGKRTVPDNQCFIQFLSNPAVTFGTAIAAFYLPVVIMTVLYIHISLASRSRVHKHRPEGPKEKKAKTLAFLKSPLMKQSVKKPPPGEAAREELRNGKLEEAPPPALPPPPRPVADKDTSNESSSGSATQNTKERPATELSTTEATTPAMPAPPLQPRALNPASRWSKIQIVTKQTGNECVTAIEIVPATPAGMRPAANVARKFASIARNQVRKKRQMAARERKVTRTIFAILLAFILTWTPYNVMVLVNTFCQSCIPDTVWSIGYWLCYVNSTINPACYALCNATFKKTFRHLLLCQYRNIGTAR
UniProt P11229: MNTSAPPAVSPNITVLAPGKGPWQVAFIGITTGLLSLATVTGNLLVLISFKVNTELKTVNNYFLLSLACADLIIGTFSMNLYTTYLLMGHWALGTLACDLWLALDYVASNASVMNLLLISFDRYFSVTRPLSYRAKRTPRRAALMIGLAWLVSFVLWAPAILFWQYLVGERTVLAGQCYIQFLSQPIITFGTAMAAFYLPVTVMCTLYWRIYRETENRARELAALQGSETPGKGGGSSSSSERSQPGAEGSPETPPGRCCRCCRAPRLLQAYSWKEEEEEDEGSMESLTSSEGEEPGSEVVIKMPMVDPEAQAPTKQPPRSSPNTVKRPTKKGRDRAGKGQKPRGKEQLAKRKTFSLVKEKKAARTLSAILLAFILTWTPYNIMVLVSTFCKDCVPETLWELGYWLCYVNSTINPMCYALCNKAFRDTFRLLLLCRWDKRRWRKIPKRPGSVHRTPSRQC
UniProt P08172, whole entry, looked up: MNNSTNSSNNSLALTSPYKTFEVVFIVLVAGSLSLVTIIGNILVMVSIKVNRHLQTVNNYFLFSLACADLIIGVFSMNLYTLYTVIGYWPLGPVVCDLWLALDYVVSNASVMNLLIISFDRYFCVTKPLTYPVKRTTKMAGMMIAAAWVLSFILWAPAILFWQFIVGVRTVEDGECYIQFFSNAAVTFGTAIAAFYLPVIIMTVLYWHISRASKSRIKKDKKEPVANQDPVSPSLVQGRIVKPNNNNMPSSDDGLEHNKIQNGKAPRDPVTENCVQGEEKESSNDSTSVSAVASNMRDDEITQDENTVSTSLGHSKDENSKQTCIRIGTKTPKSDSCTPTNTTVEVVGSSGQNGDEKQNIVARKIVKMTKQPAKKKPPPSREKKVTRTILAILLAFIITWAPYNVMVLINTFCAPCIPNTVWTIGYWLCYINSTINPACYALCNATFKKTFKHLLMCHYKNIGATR
UniProt P20309, whole entry, looked up: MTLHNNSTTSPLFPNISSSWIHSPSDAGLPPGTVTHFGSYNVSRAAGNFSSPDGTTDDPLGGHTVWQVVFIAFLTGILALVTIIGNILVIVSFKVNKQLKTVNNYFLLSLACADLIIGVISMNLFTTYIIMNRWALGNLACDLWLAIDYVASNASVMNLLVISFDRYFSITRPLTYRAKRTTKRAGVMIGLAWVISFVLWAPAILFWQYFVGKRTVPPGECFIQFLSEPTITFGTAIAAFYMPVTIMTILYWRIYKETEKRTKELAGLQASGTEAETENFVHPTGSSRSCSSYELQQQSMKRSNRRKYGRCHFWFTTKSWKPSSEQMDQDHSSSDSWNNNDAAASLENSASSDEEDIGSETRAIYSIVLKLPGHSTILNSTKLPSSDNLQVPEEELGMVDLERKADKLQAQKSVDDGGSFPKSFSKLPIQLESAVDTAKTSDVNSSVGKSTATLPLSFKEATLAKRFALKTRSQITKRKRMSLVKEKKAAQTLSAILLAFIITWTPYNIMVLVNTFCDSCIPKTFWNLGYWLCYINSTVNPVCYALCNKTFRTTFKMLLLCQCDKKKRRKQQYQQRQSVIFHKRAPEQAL
UniProt P08482: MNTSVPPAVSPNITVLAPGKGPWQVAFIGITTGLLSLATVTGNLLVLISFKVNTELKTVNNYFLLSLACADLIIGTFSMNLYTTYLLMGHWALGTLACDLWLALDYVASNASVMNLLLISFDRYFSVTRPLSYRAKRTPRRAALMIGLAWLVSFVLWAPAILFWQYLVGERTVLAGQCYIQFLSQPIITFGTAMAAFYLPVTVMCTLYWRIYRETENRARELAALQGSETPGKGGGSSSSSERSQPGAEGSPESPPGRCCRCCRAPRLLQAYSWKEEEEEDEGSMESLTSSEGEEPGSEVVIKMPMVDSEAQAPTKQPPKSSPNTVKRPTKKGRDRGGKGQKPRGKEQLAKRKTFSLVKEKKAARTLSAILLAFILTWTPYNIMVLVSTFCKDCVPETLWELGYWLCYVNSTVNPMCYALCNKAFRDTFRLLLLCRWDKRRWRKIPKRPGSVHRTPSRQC

Assays:
rabbit eyes (pupil size) [1] = test: Mydriatic effect of soft glycopyrrolates in rabbit eyes; parameters: AUC^eff(0-144 h): unit not given beside the values; conditions: for Rmax (%): 100 μl topical, % change in pupil size at 1 h
[2] = molecular target: cloned human muscarinic receptor subtype M4 (Homo sapiens, UniProt P08173); test: Receptor binding, [3H]NMS, cloned human muscarinic receptor M4; conditions: for receptor binding affinity pKi, M4: mean ± SD of 3 experiments; for Hill slope, M4: numbers in parentheses
[3] = In vitro stability in rat plasma; conditions: 37° C., pH 7.4
[4] = test system: cloned human muscarinic receptor subtypes M1-M4; test: Receptor binding at cloned human muscarinic receptors, values stated across subtypes (ranges, M3/M2 selectivity)
[5] = In vitro stability in rat blood; conditions: 37° C., pH 7.4
[6] = molecular target: cloned human muscarinic receptor subtype M1 (Homo sapiens, UniProt P11229); test: Receptor binding, [3H]NMS, cloned human muscarinic receptor M1; conditions: for receptor binding affinity pKi, M1: mean ± SD of 3 experiments; for Hill slope, M1: numbers in parentheses
[7] = molecular target: cloned human muscarinic receptor subtype M2 (Homo sapiens, UniProt P08172); test: Receptor binding, [3H]NMS, cloned human muscarinic receptor M2; conditions: for receptor binding affinity pKi, M2: mean ± SD of 3 experiments; for Hill slope, M2: numbers in parentheses
[8] = molecular target: cloned human muscarinic receptor subtype M3 (Homo sapiens, UniProt P20309); test: Receptor binding, [3H]NMS, cloned human muscarinic receptor M3; conditions: for receptor binding affinity pKi, M3: mean ± SD of 3 experiments; for Hill slope, M3: numbers in parentheses
[9] = molecular target: muscarinic receptors (mainly M1) of rat brain cortex membranes (Rattus norvegicus, UniProt P08482); test: Receptor binding, [3H]QNB, rat cortical membrane preparation; conditions: Table 8; for Ki: read-out: Ki (nM), Average ± SD, [3H]QNB, rat cortical membranes
rabbit eyes (pupil size) [10] = test: In vivo mydriatic studies of zwitterionic isomers in rabbit eyes; parameters: AUC^eff0-168 h: unit not given beside the values; conditions: for Rmax (%): 0.1 mL topical, maximum % change in pupil size

COC(=O)C[N+]1(C)CCC(OC(=O)C(O)(c2ccccc2)C2CCCC2)C1.[Br-] (racemic)
AUC^eff(0-144 h) (rabbit eyes (pupil size) [1]; conc. 0.5%): 185 ± 35 | Rmax (%) (rabbit eyes (pupil size) [1]; conc. 0.5%): 45.83 ± 4.81% | AUC^eff(0-144 h) (rabbit eyes (pupil size) [1]; conc. 1%): 467 ± 114 | Rmax (%) (rabbit eyes (pupil size) [1]; conc. 1%): 59.58 ± 15.72% | receptor binding affinity pKi, M4 [2]: 8.29 ± 0.19 | Hill slope, M4 [2]: (1.12 ± 0.05) | half-life t1/2, min [3]: 19.5 min | pseudo-first-order rate constant k × 10^−3, min^−1 [3]: 36.4 ± 5.0 × 10^−3 min^−1 | Selectivity M3/M2 (affinity ratio) [4]: 1.0 ± 0.0 times | half-life t1/2, min [5]: 57 min | pseudo-first-order rate constant k × 10^−3, min^−1 [5]: 12.3 ± 1.3 × 10^−3 min^−1 | receptor binding affinity pKi, M1 [6]: 7.91 ± 0.05 | Hill slope, M1 [6]: (1.02 ± 0.12) | receptor binding affinity pKi, M2 [7]: 7.79 ± 0.11 | receptor binding affinity pKi, M3 [8]: 7.80 ± 0.10 | Hill slope, M3 [8]: (1.17 ± 0.18)

CCCCCCCCOC(=O)C[N@@+]1(C)CC[C@H](OC(=O)[C@](O)(c2ccccc2)C2CCCC2)C1
Hill slope [9]: −1.22 ± 0.11 | Ki [9]: 60 nM

CCCCCCCCOC(=O)C[N+]1(C)CCC(OC(=O)C(O)(c2ccccc2)C2CCCC2)C1 (centres unmarked)
Hill slope [9]: −1.26 ± 0.06 | Ki [9]: 68 nM

C[N@@+]1(CC(=O)[O-])CC[C@@H](OC(=O)[C@](O)(c2ccccc2)C2CCCC2)C1
receptor binding affinity pKi, M4 [2]: 7.00 ± 0.05 | Hill slope, M4 [2]: (0.93 ± 0.01) | AUC^eff0-168 h (rabbit eyes (pupil size) [10]; conc. 0.1%): 89 ± 50 | Rmax (%) (rabbit eyes (pupil size) [10]; conc. 0.1%): 24.40 ± 8.33% | Selectivity M3/M2 (affinity ratio) [4]: 3.5 ± 0.2 times | receptor binding affinity pKi, M1 [6]: 7.04 ± 0.09 | Hill slope, M1 [6]: (0.97 ± 0.13) | receptor binding affinity pKi, M2 [7]: 6.43 ± 0.07 | Hill slope, M2 [7]: (0.85 ± 0.21) | receptor binding affinity pKi, M3 [8]: 6.95 ± 0.04 | Hill slope, M3 [8]: (1.06 ± 0.04)

C[N@@+]1(CC(=O)[O-])CC[C@H](OC(=O)[C@@](O)(c2ccccc2)C2CCCC2)C1
receptor binding affinity pKi, M4 [2]: <4.5 | AUC^eff0-168 h (rabbit eyes (pupil size) [10]; conc. 0.1%): 0 ± 0 | Rmax (%) (rabbit eyes (pupil size) [10]; conc. 0.1%): 0.00 ± 0.00% | AUC^eff0-168 h (rabbit eyes (pupil size) [10]; conc. 0.4%): 0 ± 0 | Rmax (%) (rabbit eyes (pupil size) [10]; conc. 0.4%): 0.00 ± 0.00% | receptor binding affinity pKi, M1 [6]: <4.5 | receptor binding affinity pKi, M2 [7]: <4.5 | receptor binding affinity pKi, M3 [8]: <4.5

COC(=O)C[N+]1(C)CCC(OC(=O)[C@](O)(c2ccccc2)C2CCCC2)C1.[Br-] (some centres unmarked)
AUC^eff(0-144 h) (rabbit eyes (pupil size) [1]; conc. 0.5%): 752 ± 342 | Rmax (%) (rabbit eyes (pupil size) [1]; conc. 0.5%): 52.92 ± 13.41% | AUC^eff(0-144 h) (rabbit eyes (pupil size) [1]; conc. 1%): 875 ± 197 | Rmax (%) (rabbit eyes (pupil size) [1]; conc. 1%): 57.08 ± 11.66% | duration of mydriatic activity (rabbit eyes (pupil size) [1]; pharmacodynamically equipotent doses): 24 h | receptor binding affinity pKi, M4 [2]: 9.52 ± 0.01 | Hill slope, M4 [2]: (0.83 ± 0.01) | half-life t1/2, min [3]: 20 min | pseudo-first-order rate constant k × 10^−3, min^−1 [3]: 34.5 ± 3.2 × 10^−3 min^−1 | pKi, range over subtypes M1-M4 [4]: 8.9-9.5 | Selectivity M3/M2 (affinity ratio) [4]: 1.4 ± 0.2 times | half-life t1/2, min [5]: 57 min and 56.7 ± 6.1 min | pseudo-first-order rate constant k × 10^−3, min^−1 [5]: 12.4 ± 1.4 × 10^−3 min^−1 | receptor binding affinity pKi, M1 [6]: 8.89 ± 0.04 | Hill slope, M1 [6]: (0.83 ± 0.11) | receptor binding affinity pKi, M2 [7]: 8.87 ± 0.05 | Hill slope, M2 [7]: (1.10 ± 0.11) | receptor binding affinity pKi, M3 [8]: 9.00 ± 0.06 | Hill slope, M3 [8]: (0.83 ± 0.01)

C[N@@+]1(CC(=O)[O-])CC[C@@H](OC(=O)[C@@](O)(c2ccccc2)C2CCCC2)C1
receptor binding affinity pKi, M4 [2]: 5.79 ± 0.12 | Hill slope, M4 [2]: (0.88 ± 0.04) | AUC^eff0-168 h (rabbit eyes (pupil size) [10]; conc. 0.1%): 0 ± 0 | Rmax (%) (rabbit eyes (pupil size) [10]; conc. 0.1%): 0.00 ± 0.00% | AUC^eff0-168 h (rabbit eyes (pupil size) [10]; conc. 0.4%): 11 ± 1 | Rmax (%) (rabbit eyes (pupil size) [10]; conc. 0.4%): 7.44 ± 0.60% | Selectivity M3/M2 (affinity ratio) [4]: 0.8 ± 0.1 times | receptor binding affinity pKi, M1 [6]: 5.87 ± 0.04 | Hill slope, M1 [6]: (1.06 ± 0.05) | receptor binding affinity pKi, M2 [7]: 5.65 ± 0.06 | Hill slope, M2 [7]: (1.24 ± 0.07) | receptor binding affinity pKi, M3 [8]: 5.54 ± 0.16 | Hill slope, M3 [8]: (1.02 ± 0.12)

C[N+]1(CC(=O)[O-])CCC(OC(=O)C(O)(c2ccccc2)C2CCCC2)C1 (centres unmarked)
receptor binding affinity pKi, M4 [2]: 6.44 ± 0.06 | Hill slope, M4 [2]: (0.84 ± 0.06) | AUC^eff0-168 h (rabbit eyes (pupil size) [10]; conc. 0.01%): 0.7 ± 0.9 | Rmax (%) (rabbit eyes (pupil size) [10]; conc. 0.01%): 1.85 ± 2.14% | AUC^eff0-168 h (rabbit eyes (pupil size) [10]; conc. 1%): 119 ± 34 | Rmax (%) (rabbit eyes (pupil size) [10]; conc. 1%): 45.37 ± 8.19% | pKi, range over subtypes M1-M4 [4]: 5.5-6.4 | Selectivity M3/M2 (affinity ratio) [4]: 2.4 ± 0.7 times | receptor binding affinity pKi, M1 [6]: 6.19 ± 0.06 | Hill slope, M1 [6]: (1.11 ± 0.06) | receptor binding affinity pKi, M2 [7]: 5.48 ± 0.13 | Hill slope, M2 [7]: (1.02 ± 0.20) | receptor binding affinity pKi, M3 [8]: 5.84 ± 0.07 | Hill slope, M3 [8]: (1.01 ± 0.07)

C[N@+]1(CC(=O)[O-])CC[C@@H](OC(=O)[C@](O)(c2ccccc2)C2CCCC2)C1
receptor binding affinity pKi, M4 [2]: 8.33 ± 0.04 | Hill slope, M4 [2]: (1.00 ± 0.06) | duration of mydriatic activity (rabbit eyes (pupil size) [10]; 0.1% concentrations (FIG. 5)): 10 h | AUC^eff0-168 h (rabbit eyes (pupil size) [10]; conc. 0.1%): 308 ± 106 | Rmax (%) (rabbit eyes (pupil size) [10]; conc. 0.1%): 51.79 ± 16.62% | Selectivity M3/M2 (affinity ratio) [4]: 3.3 ± 0.0 times | receptor binding affinity pKi, M1 [6]: 8.13 ± 0.06 | Hill slope, M1 [6]: (1.25 ± 0.01) | receptor binding affinity pKi, M2 [7]: 7.63 ± 0.02 | Hill slope, M2 [7]: (0.82 ± 0.15) | receptor binding affinity pKi, M3 [8]: 8.15 ± 0.02 | Hill slope, M3 [8]: (0.84 ± 0.17)

CCCCCCOC(=O)C[N+]1(C)CCC(OC(=O)C(O)(c2ccccc2)C2CCCC2)C1 (centres unmarked)
Hill slope [9]: −1.15 ± 0.05 | Ki [9]: 58 nM

C[N@+]1(CC(=O)[O-])CC[C@H](OC(=O)[C@](O)(c2ccccc2)C2CCCC2)C1
receptor binding affinity pKi, M4 [2]: 8.56 ± 0.07 | Hill slope, M4 [2]: (0.86 ± 0.06) | AUC^eff0-168 h (rabbit eyes (pupil size) [10]; conc. 0.1%): 274 ± 134 | Rmax (%) (rabbit eyes (pupil size) [10]; conc. 0.1%): 47.32 ± 19.64% | Selectivity M3/M2 (affinity ratio) [4]: 5.5 ± 1.1 times | receptor binding affinity pKi, M1 [6]: 8.32 ± 0.04 | Hill slope, M1 [6]: (1.01 ± 0.01) | receptor binding affinity pKi, M2 [7]: 7.64 ± 0.01 | Hill slope, M2 [7]: (1.00 ± 0.04) | receptor binding affinity pKi, M3 [8]: 8.46 ± 0.12 | Hill slope, M3 [8]: (0.80 ± 0.21)

CCCCCCOC(=O)C[N@+]1(C)CC[C@H](OC(=O)[C@](O)(c2ccccc2)C2CCCC2)C1
Hill slope [9]: −1.22 ± 0.08 | Ki [9]: 67 nM

C[N@+]1(CC(=O)[O-])CC[C@H](OC(=O)[C@@](O)(c2ccccc2)C2CCCC2)C1
receptor binding affinity pKi, M4 [2]: 5.85 ± 0.05 | Hill slope, M4 [2]: (0.95 ± 0.18) | AUC^eff0-168 h (rabbit eyes (pupil size) [10]; conc. 0.1%): 13 ± 15 | Rmax (%) (rabbit eyes (pupil size) [10]; conc. 0.1%): 3.87 ± 4.49% | AUC^eff0-168 h (rabbit eyes (pupil size) [10]; conc. 0.4%): 28 ± 2 | Rmax (%) (rabbit eyes (pupil size) [10]; conc. 0.4%): 11.01 ± 3.81% | Selectivity M3/M2 (affinity ratio) [4]: 1.0 ± 0.2 times | receptor binding affinity pKi, M1 [6]: 5.84 ± 0.06 | Hill slope, M1 [6]: (1.13 ± 0.10) | receptor binding affinity pKi, M2 [7]: 5.61 ± 0.00 | Hill slope, M2 [7]: (1.20 ± 0.02) | receptor binding affinity pKi, M3 [8]: 5.61 ± 0.09 | Hill slope, M3 [8]: (1.03 ± 0.01)
